Results taken from patent US5571789A (Haemopep Pharma GmbH, priority 1992, dated 1996).

Key:
[1] = Description: The anamnesis gave no evidence for an exacerbation of the disease in the last 8 weeks. No nicotine abuse was known from any of the patients. Additional inclusion criteria were defined by an expiratory one-second-capacity (FEV1.0) of 40 to 70% of the maximum vital capacity (VCmax) before administration of a broncho-spasmolytic agent, an effect of a β2 -sympathomimetic on FEV1.0 of ≥15%, no alteration of the maintenance antiobstructive treatment and no administration of oral corticoids in the last 4 weeks before the beginning of the study. Within 8 hours before the beginning of the examinations no inhalatory application of a β2 -sympathomimetic must have occurred anymore.
[2] = system: blood pressure and heart frequency
[3] = intravenous application, similar dosage of urodilatin and ANP; cited from earlier work
heart frequency = assay: Heart frequency (EKG) in rats under infusion
Description: Employing a test animal body plethysmograph allowed for continuous measurement of the respiration volume (VT), respiration frequency (f), respiration minute volume (MV), resistance of the lung (RL), dynamic compliance (Cdyn), respiration flow (F) and transpulmonary pressure (PTP) of a narcotized, intubated and spontaneously breathing rat. Circulation monitoring was accomplished by EKG recording with evaluation of the heart frequency (HR).
By means of an injectomar device the test animals were infused 0.5 ml of solution continuously over a total of 10 minutes.

Substance: urodilatin
- Diuretic effect observed ([1]; 20 ng/kg/min): 2 patients
- Headaches ([1]; 20 ng/kg/min): One
- No side effects reported at all ([1]; 20 ng/kg/min): 3 patients
- Diuretic effect observed ([1]; 40 ng/kg/min): 3 patients
- No side effects reported at all ([1]; 40 ng/kg/min): 2 patients
- Transitory bradycardia ([1]; 40 ng/kg/min): 2 patients
- Diuretic effect observed ([1]; 60 ng/kg/min): 3 patients
- No side effects reported at all ([1]; 60 ng/kg/min): 3 patients
- Transitory bradycardia ([1]; 60 ng/kg/min): 1 patient
- Correlation of side effects with the amount of the infused dose ([1]; 20, 40, 60 ng/kg/min): did not show any correlation
- No side effects reported at all ([1]; all dosage groups): 8 of 18
- Transitory bradycardia ([1]; all dosage groups): 3 of 18
- Systolic blood pressure versus initial values (pre) ([2]; 40 ng/kg/min, 20 and 30 minutes after completion of the infusion): significant drop
- Persistence of heart frequency increase ([2]; 60 ng/kg/min only): endured until 30 minutes after completion of the infusion
- Systolic and diastolic blood pressure values during the infusion ([2]; 20, 40 and 60 ng/kg/min (any dosage group)): no significant change
- Heart frequency versus initial values ([2]; after 40 minutes of infusion, all three dosage groups (20, 40, 60 ng/kg/min)): significant increase
- Hypotensive effect [3]: without the hypotensive effect
- Heart frequency (significant increase / differences between groups) (heart frequency; administered doses of groups B-D, before infusion, after 5 minutes, end of ACh provocation): could not be detected
- Heart frequency (heart frequency; preliminary experiments, 400 ng/kg/min infused in 1 ml): no changes in heart frequency

Where two headings read alike, the source gives them in different places.
